## CycPeptMPDB entries from one study

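Conditions beyond the assay type are not listed; see the original paper. Other peptides of the study may be missing here. Peptides that the database sets to -10, its floor, are left out.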

PAMPA is the parallel artificial membrane permeability assay, which has no cells and reads passive diffusion. Values are log10 P with P in cm/s, so -5 is more permeable than -7.

The entry for CC(C)C[C@@H]1NC(=O)C[C@H](Cc2ccccc2)NC(=O)[C@H](Cc2ccccc2)NC(=O)CN(Cc2ccccc2)C(=O)[C@H]2CCCN2C(=O)[C@@H](CC(C)C)NC1=O lists PAMPA -5.42 (log10 cm/s). CC(C)C[C@@H]1C(=O)N2CCC[C@H]2C(=O)N(Cc2ccccc2)CC(=O)N[C@@H](Cc2ccccc2)C(=O)N2CCC[C@@H]2C(=O)N(C)[C@H](C)C(=O)N(C)[C@@H](CC(C)C)C(=O)N1C has PAMPA -5.42 (log10 cm/s). Listed for CC(C)C[C@H]1NC(=O)C[C@H](Cc2ccccc2)NC(=O)[C@H]2CCCN2C(=O)[C@H](Cc2ccccc2)NC(=O)[C@H](CC(C)C)N(C)C(=O)[C@@H]2CCCN2C(=O)CN(Cc2ccccc2)C1=O: PAMPA -5.53 (log10 cm/s). Listed for CC(C)C[C@H]1C(=O)N(C)[C@@H](CC(C)C)C(=O)N2CCC[C@@H]2C(=O)N(Cc2ccccc2)CC(=O)N[C@@H](Cc2ccccc2)C(=O)N2CCC[C@@H]2C(=O)N(C)[C@@H](C)C(=O)N1C: PAMPA -5.15 (log10 cm/s). CC(C)C[C@@H]1NC(=O)[C@@H](C)NC(=O)[C@H](Cc2ccccc2)NC(=O)[C@@H](CC(C)C)N(C)C(=O)[C@@H]2CCCN2C(=O)[C@H](CC(C)C)NC1=O is reported with PAMPA -6.33 (log10 cm/s). Listed for CCCN1CC(=O)N(C)[C@@H](CC(C)C)C(=O)N(Cc2ccccc2)CC(=O)N2CCC[C@H]2C(=O)N(C)[C@@H](CC(C)C)C(=O)N[C@@H](Cc2ccccc2)C(=O)N2CCC[C@@H]2C1=O: PAMPA -5.13 (log10 cm/s). The entry for CC(C)C[C@@H]1NC(=O)[C@H]2CCCN2C(=O)CN(Cc2ccccc2)C(=O)[C@H](CC(C)C)N(C)C(=O)C[C@H](Cc2ccccc2)NC(=O)[C@@H]2CCCN2C(=O)[C@H](Cc2ccccc2)NC1=O lists PAMPA -5.60 (log10 cm/s).

CC(C)C[C@@H]1C(=O)N(C)[C@@H](CC(C)C)C(=O)N2CCC[C@H]2C(=O)N(C)[C@H](CC(C)C)C(=O)N[C@@H](Cc2ccccc2)C(=O)N2CCC[C@@H]2C(=O)N(C)[C@H](C)C(=O)N1C has PAMPA -5.43 (log10 cm/s). Listed for CCCN1CC(=O)N(C)[C@H](CC(C)C)C(=O)N(Cc2ccccc2)CC(=O)N2CCC[C@H]2C(=O)N(C)[C@H](CC(C)C)C(=O)N[C@@H](Cc2ccccc2)C(=O)N2CCC[C@H]2C1=O: PAMPA -5.61 (log10 cm/s). CC(C)C[C@@H]1NC(=O)[C@H](C)N(C)C(=O)[C@@H]2CCCN2C(=O)[C@H](Cc2ccccc2)NC(=O)CN(Cc2ccccc2)C(=O)[C@@H]2CCCN2C(=O)[C@H](CC(C)C)N(C)C1=O has PAMPA -5.48 (log10 cm/s). CC(C)C[C@@H]1C(=O)N[C@@H](Cc2ccccc2)CC(=O)N2CCC[C@@H]2C(=O)N[C@H](CC(C)C)C(=O)N[C@@H](Cc2ccccc2)C(=O)N(C)[C@H](C)C(=O)N1C is reported with PAMPA -5.66 (log10 cm/s). Listed for CC(C)C[C@@H]1C(=O)N[C@H](CC(C)C)C(=O)N2CCC[C@@H]2C(=O)N(C)[C@H](CC(C)C)C(=O)N[C@@H](Cc2ccccc2)C(=O)N[C@@H](Cc2ccccc2)CC(=O)N1C: PAMPA -5.09 (log10 cm/s). CC(C)C[C@H]1NC(=O)C[C@H](Cc2ccccc2)NC(=O)[C@@H]2CCCN2C(=O)[C@H](Cc2ccccc2)NC(=O)CN(Cc2ccccc2)C(=O)[C@@H]2CCCN2C(=O)[C@H](CC(C)C)N(C)C1=O is reported with PAMPA -5.97 (log10 cm/s). Listed for CC(C)C[C@H]1NC(=O)[C@@H]2CCCN2C(=O)C[C@H](Cc2ccccc2)NC(=O)[C@H](CC(C)C)N(C)C(=O)[C@@H](C)N(C)C(=O)[C@@H]2CCCN2C(=O)[C@H](Cc2ccccc2)NC1=O: PAMPA -6.27 (log10 cm/s).

CC(C)C[C@H]1NC(=O)[C@@H](C)NC(=O)[C@H]2CCCN2C(=O)[C@H](Cc2ccccc2)NC(=O)CN(Cc2ccccc2)C(=O)[C@H]2CCCN2C(=O)CN(Cc2ccccc2)C1=O has PAMPA -6.38 (log10 cm/s). The entry for CC(C)C[C@H]1C(=O)N[C@@H](Cc2ccccc2)C(=O)N2CCC[C@@H]2C(=O)N[C@H](C)C(=O)N(C)[C@@H](CC(C)C)C(=O)N(Cc2ccccc2)CC(=O)N2CCC[C@@H]2C(=O)N1C lists PAMPA -6.25 (log10 cm/s).

The first 2 entries again:

{"smiles": "CC(C)C[C@@H]1NC(=O)C[C@H](Cc2ccccc2)NC(=O)[C@H](Cc2ccccc2)NC(=O)CN(Cc2ccccc2)C(=O)[C@H]2CCCN2C(=O)[C@@H](CC(C)C)NC1=O", "PAMPA (log10 cm/s)": "-5.42"}
{"smiles": "CC(C)C[C@@H]1C(=O)N2CCC[C@H]2C(=O)N(Cc2ccccc2)CC(=O)N[C@@H](Cc2ccccc2)C(=O)N2CCC[C@@H]2C(=O)N(C)[C@H](C)C(=O)N(C)[C@@H](CC(C)C)C(=O)N1C", "PAMPA (log10 cm/s)": "-5.42"}

Data: CycPeptMPDB; original report Townsend et al. 2020, doi:10.26434/chemrxiv.13335941.v1.